The chains behind the UniProt entries cited, without tags or fusion partners.
Melanocortin receptor 4 (Homo sapiens), P32245, UniProt P32245, whole entry, looked up: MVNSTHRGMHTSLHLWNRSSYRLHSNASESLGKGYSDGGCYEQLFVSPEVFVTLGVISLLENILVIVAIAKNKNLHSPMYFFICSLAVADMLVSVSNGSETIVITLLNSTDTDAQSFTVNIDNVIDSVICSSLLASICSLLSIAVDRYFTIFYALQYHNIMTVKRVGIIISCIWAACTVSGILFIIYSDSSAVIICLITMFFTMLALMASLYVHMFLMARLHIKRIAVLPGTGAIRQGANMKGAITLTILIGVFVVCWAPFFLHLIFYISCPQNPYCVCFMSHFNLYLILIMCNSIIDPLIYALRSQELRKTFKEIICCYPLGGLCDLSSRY

# Bioassay records (PubChem)
# MC4R antag cAMP: MC4R antagonists of cAMP signaling, primary screen, cell-based, TR-FRET, antagonist arm of biased-ligand search. AID 540295, 2011. 360,000 compounds, 0.48% hits. MC4R-expressing cells, MTII-stimulated cAMP, LANCE TR-FRET. inhibition, % at 6.5 µM;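 active = inhibition above its plate's cutoff, the mean of tested wells on that plate plus 3 SD, cut at about 29% in these data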;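 also: 0% = Melanotan II alone and 100% = Melanotan II plus saturating MCL0020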
#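 System: U2OS-MC4R stable cell line; Technique: Eu-cAMP/anti-cAMP TR-FRET, emission 671 nm; Repeats: single well per compound; Also added: Melanotan II; Dosing: one concentration, 6.5 µM nominal; Schedule: 30-min compound, 1-h challenge, 1-h detection, room temperature.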
# Yeast UUG start-1: modulators of start codon recognition fidelity in yeast; S. cerevisiae UUG-firefly luciferase reporter, luminescence/redox ratio; activity score, % at 18.7 µM; hit rate 0.13% among 350,000; AID 602363;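 active = replicate mean at a twofold rise or more, about +100% in these data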;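 note: firefly luciferase made from a UUG start codon reports start codon fidelity; reporter light over untreated wells divided by growth signal over untreated wells; some hits fall short of that in this replicate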
# HDAC3 inhib: HDAC3 deacetylase inhibitors, primary screen, biochemical, fluorescence, cell-free homogeneous; Histone deacetylase 3 (Homo sapiens), O15379; recombinant HDAC3, fluorogenic peptide/trypsin coupled; inhibition, % at 8.3 µM; 320,000 compounds, 0.15% hits; AID 2718, 2010; in the data active = inhibition above about 26%, passing the limit was not always enough
# MC4R ag barr: MC4R agonists recruiting beta-arrestin, primary screen, cell-based, luminescence, agonist arm of biased-ligand search. AID 540308, 2011. activation, % at 8.9 µM. Melanocortin receptor 4 (Homo sapiens), P32245. 360,000 compounds, 0.98% hits. U2OS MC4R beta-arrestin complementation; percent of melanotan II response, DMSO zero;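 active = activation above a per-plate cutoff, the mean activation of sample wells on that plate plus 3 SD, cut at about 8% in these data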
# NALP1 inh: NALP1 inflammasome inhibitors in reconstituted yeast, colorimetric, S. cerevisiae, triplicate retest; S. cerevisiae NALP1/ASC/caspase-1 growth, X-gal OD620, 72 h; inhibition, % at 10 µM; 280,000 compounds, 0.61% hits; AID 2071, 2009; in the data active = inhibition mostly above about 24%, no sharp cut-off; inactive = mostly below about 32%
# ALR H2O2 inh: human ALR oxidase inhibition via reduced H2O2; P55789; purified ALR, DTT oxidation, H2O2 HRP-luminol luminescence; inhibition, % (concentration not given with the values); 3.8% of 290,000 active; AID 485317;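 active = mean and each replicate at 75% or more; inconclusive = only one of the two met; inactive = neither met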;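 note: stock transfer was 7.5 nL into about 7.5 µL; 0% = neutral wells and 100% = wells with inactivated enzyme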
# Yeast UUG start-2: enhancers of UUG start codon usage in yeast, dose response, S. cerevisiae, UUG firefly luciferase, cherry-pick, set 2; shares compounds with Yeast UUG start-1; luminescence, 4 h; 100% means double the DMSO signal; activation, % at 38 µM; 540 tested, under 10 active; AID 652061, 2013;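 active = signal increase whose fitted curve reaches an absolute level of 40 at a concentration under 10 µM; inactive = activity opposite to the expected increase, or the rest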
# Starred values were filed as active, the others as inactive; i = inactive; . = no result given. In the library only some 4.2% were active in any assay of this set; here they are far more common.
# Abbreviations – A = MC4R antag cAMP; B = Yeast UUG start-1; C = HDAC3 inhib; D = MC4R ag barr; E = NALP1 inh; F = ALR H2O2 inh; G = Yeast UUG start-2
1) N#Cc1ccccc1CN1C(=O)NC(Cc2c[nH]c3ccccc23)C1=O (stereo not drawn)
  A = -3	B = 588*	C = 3	D = 0	E = 3	F = 0	G = 10

2) Cc1ccc(NC(=O)CSc2nnc([C@H](C)NC(=O)OC(C)(C)C)o2)c(C)c1
  A = 14	B = 214*	C = -1	D = -1	E = 10	F = -7	G = 3

3) O=C1c2ccccc2[C@@]2(Cc3ccccc3N(CCN3CCOCC3)C2=O)[C@H](c2ccc(CO)cc2)N1Cc1ccccc1Cl
  A = .	B = 55	C = .	D = .	E = .	F = .	G = .

4) COc1ccccc1CN1C(=O)c2ccccc2[C@@]2(Cc3ccccc3N(CCN3CCOCC3)C2=O)[C@@H]1c1ccc(CO)cc1
  A = .	B = 130*	C = .	D = .	E = .	F = .	G = i

5) CN(C)CCCN1C(=O)[C@@]2(Cc3ccccc31)c1ccccc1C(=O)N(Cc1ccccc1Cl)[C@H]2c1ccc(CO)cc1
  A = .	B = 202*	C = .	D = .	E = .	F = .	G = i

6) CO[C@@H]1CN(C)C(=O)c2cc(NC(C)=O)ccc2OC[C@H](C)N(C(=O)c2ccncc2)C[C@@H]1C
  A = .	B = -5	C = .	D = .	E = .	F = .	G = .

7) CC1=C(C(=O)N(C(C)C)C(C)C)CC(CC(=O)NCCCN(C)C)C(=O)N1CCCN1CCCC1=O (stereo not drawn)
  A = .	B = -7	C = .	D = .	E = .	F = .	G = .

8) CC1=C(C(=O)N(C)C)CC(CC(=O)NCCCN(C)C)C(=O)N1CCCN1CCCC1=O (stereo not drawn)
  A = .	B = 104*	C = .	D = .	E = .	F = .	G = 7

9) CC1=C(C(=O)N(C)C)CC(CC(=O)NCCc2ccccn2)C(=O)N1CCCN1CCCC1=O (stereo not drawn)
  A = 11	B = 101*	C = .	D = -1	E = .	F = .	G = -6

10) CCN(CC)C(=O)C1=C(C)N(CCCN2CCCC2=O)C(=O)C(CC(=O)NCCc2ccccn2)C1 (stereo not drawn)
  A = -5	B = -23	C = .	D = -1	E = .	F = .	G = .

11) Cc1cc(Nc2ccc(Cl)cc2)nc(NCc2ccccc2)n1
  A = 6	B = active	C = 2	D = 6	E = 76*	F = 34	G = -2

12) Cc1cc(N/N=C/c2ccc(Cl)cc2Cl)nc(NCc2ccccc2)n1
  A = 2	B = .	C = 14	D = -2	E = 44	F = -9	G = .

13) CO[C@H]1CN(C)C(=O)c2cc(NC(=O)C3CC3)ccc2OC[C@H](C)N(Cc2nccs2)C[C@H]1C
  A = .	B = 2	C = .	D = .	E = .	F = .	G = .

14) COCCNc1nnc(SCC(=O)c2ccc3c(c2)OCO3)s1
  A = 6	B = 474*	C = 3	D = 0	E = 21	F = .	G = 1

15) COCCSc1nnc(NC(=O)c2ccc3c(c2)OCO3)s1
  A = 3	B = .	C = 5	D = -3	E = -13	F = 2	G = .

# Abbreviations – A = MC4R antag cAMP; B = Yeast UUG start-1; C = HDAC3 inhib; D = MC4R ag barr; E = NALP1 inh; F = ALR H2O2 inh; G = Yeast UUG start-2
16) C[C@H](CO)N1C[C@H](C)[C@H](CN(C)C(=O)C2CCCCC2)Oc2cc(C3=CCCCC3)ccc2S1(=O)=O
  A = .	B = 9	C = .	D = .	E = .	F = .	G = .

17) O=S(=O)(Nc1cccc(-c2cn3cccnc3n2)c1)c1ccc(-c2ccccc2)cc1
  A = 8	B = 545*	C = -35	D = 2	E = 2	F = 1	G = 3

18) N#C[C@@H]1[C@@H](c2ccc(C3=CCCCC3)cc2)[C@H](CO)N1C(=O)CN1CCOCC1
  A = .	B = 12	C = .	D = .	E = .	F = .	G = .

19) N#C/C(=C\Nc1ccc2c(c1)OCCO2)C(=O)NCc1ccco1
  A = 1	B = 102*	C = 7	D = -2	E = 20	F = -9	G = -4

20) CC(C)NC(=O)N(C)C[C@H]1OCCCC[C@@H](C)Oc2ccc(NS(=O)(=O)c3cccs3)cc2C(=O)N([C@H](C)CO)C[C@H]1C
  A = .	B = -2	C = .	D = .	E = .	F = .	G = .

21) C[C@@H]1CCCCO[C@@H](CN(C)Cc2ccc(C(=O)O)cc2)[C@H](C)CN([C@@H](C)CO)C(=O)c2cc(NS(=O)(=O)c3ccc(F)cc3)ccc2O1
  A = .	B = 112*	C = .	D = .	E = .	F = .	G = i

22) Cc1ccc(S(=O)(=O)N2CCOCC2)cc1C(=O)OC(C)C(=O)NC1CCCC1 (stereo not drawn)
  A = 5	B = 119*	C = -1	D = -2	E = .	F = -1	G = -5

23) O=C(CNC(=O)c1ccccc1F)NCCOc1cccc(Cl)c1Cl
  A = -7	B = 517*	C = 5	D = 1	E = 24	F = -4	G = 2

24) O=C(C[C@@H]1CC[C@H]2[C@@H](COC[C@H](O)CN2C(=O)Nc2cccc(Cl)c2)O1)NCC1CCCCC1
  A = .	B = -3	C = .	D = .	E = .	F = .	G = .

25) Cc1ccc(S(=O)(=O)Nc2ccc3c(c2)C(=O)N([C@@H](C)CO)C[C@@H](C)[C@@H](CN(C)C(=O)Nc2ccc4c(c2)OCO4)OCCCC[C@@H](C)O3)cc1
  A = .	B = -7	C = .	D = .	E = .	F = .	G = .

26) O=C(Cn1cc(C(=O)C2CC2)c2ccccc21)NCC1CCCO1 (stereo not drawn)
  A = 3	B = 9	C = 4	D = 0	E = -3	F = -4	G = 6

27) CCOC(=O)C1CCN(C(=O)Cn2cc(C(=O)C3CC3)c3ccccc32)CC1
  A = 7	B = -9	C = -1	D = -1	E = 7	F = -3	G = 11

28) CC(=O)c1cn(CC(=O)NCC2CCCO2)c2ccccc12 (stereo not drawn)
  A = 1	B = 1	C = -3	D = -1	E = 6	F = -2	G = .

29) O=C(Cn1cc(C(=O)C2CC2)c2ccccc21)NC1CCCC1
  A = 4	B = 6	C = -1	D = 0	E = -9	F = .	G = 8

30) O=C(c1cn(CC(=O)N2CCCCC2)c2ccccc12)C1CC1
  A = 2	B = -15	C = 2	D = 0	E = 13	F = .	G = 3

# Some of these compounds in order of the Yeast UUG start-2 value, descending:
# Abbreviations – A = MC4R antag cAMP; B = Yeast UUG start-1; C = HDAC3 inhib; D = MC4R ag barr; E = NALP1 inh; F = ALR H2O2 inh; G = Yeast UUG start-2
27) CCOC(=O)C1CCN(C(=O)Cn2cc(C(=O)C3CC3)c3ccccc32)CC1
  A = 7	B = -9	C = -1	D = -1	E = 7	F = -3	G = 11

1) N#Cc1ccccc1CN1C(=O)NC(Cc2c[nH]c3ccccc23)C1=O (stereo not drawn)
  A = -3	B = 588*	C = 3	D = 0	E = 3	F = 0	G = 10

8) CC1=C(C(=O)N(C)C)CC(CC(=O)NCCCN(C)C)C(=O)N1CCCN1CCCC1=O (stereo not drawn)
  A = .	B = 104*	C = .	D = .	E = .	F = .	G = 7

# Continuation:
# Abbreviations – A = MC4R antag cAMP; B = Yeast UUG start-1; C = HDAC3 inhib; D = MC4R ag barr; E = NALP1 inh; F = ALR H2O2 inh; G = Yeast UUG start-2
31) C[C@H](CO)N1C[C@H](C)[C@@H](CN(C)C)OCCCC[C@H](C)Oc2ccc(NS(=O)(=O)c3cccs3)cc2C1=O
  A = .	B = 10	C = .	D = .	E = .	F = .	G = .

32) CCC(=O)Nc1ccc2c(c1)C(=O)N(C)C[C@H](OC)[C@H](C)CN(C(=O)NC(C)C)[C@H](C)CO2
  A = .	B = -15	C = .	D = .	E = .	F = .	G = .

33) C[C@@H]1CN([C@@H](C)CO)C(=O)c2cccc(NC(=O)NC3CCCCC3)c2O[C@@H]1CN(C)C(=O)NC1CCCCC1
  A = .	B = 10	C = .	D = .	E = .	F = .	G = .

34) CNC[C@H]1OCCCC[C@H](C)Oc2ccc(NS(=O)(=O)c3cn(C)cn3)cc2C(=O)N([C@H](C)CO)C[C@@H]1C
  A = .	B = -9	C = .	D = .	E = .	F = .	G = .

35) Cc1noc(C)c1NC(=O)Nc1ccc2c(c1)C(=O)N([C@H](C)CO)C[C@@H](C)[C@H](CN(C)C(=O)NC1CCCCC1)O2
  A = .	B = 6	C = .	D = .	E = .	F = .	G = .

36) COCC(=O)N1[C@H](CN(C)C(=O)c2ccncc2)[C@@H](c2ccccc2)[C@@H]1CO
  A = .	B = -9	C = .	D = .	E = .	F = .	G = .

37) CC(C)(C#CC(O)(c1ccccc1)c1ccccc1)N1CCCC1
  A = 3	B = .	C = -4	D = -1	E = -7	F = -4	G = 11

38) OC(C#CCN1CCCCC1)(c1ccccc1)c1ccccc1
  A = 9	B = -10	C = 3	D = -1	E = -22	F = -4	G = .

39) CC(C)(C#CC(O)(c1ccccc1)c1ccccc1)N1CCCCC1
  A = 5	B = -2	C = -1	D = 0	E = 6	F = -35	G = .

40) CC(O)(C#CCN1CCCCCC1)c1ccccc1 (stereo not drawn)
  A = 19	B = .	C = -5	D = 2	E = -7	F = 5	G = 1
